## Measured affinities in a library of Ab-14 heavy chain variants

All variants were tested on one target, the spike HR2 peptide PDVDLGDISGINAS (SARS-CoV-2).

Parent: Ab-14, a human scFv built as VH, three GGGGS repeats, VL. Only the CDRs of the heavy chain vary.
VH: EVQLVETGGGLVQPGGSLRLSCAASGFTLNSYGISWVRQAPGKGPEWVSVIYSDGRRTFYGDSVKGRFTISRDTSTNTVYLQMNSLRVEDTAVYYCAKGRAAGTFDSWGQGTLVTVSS
VL: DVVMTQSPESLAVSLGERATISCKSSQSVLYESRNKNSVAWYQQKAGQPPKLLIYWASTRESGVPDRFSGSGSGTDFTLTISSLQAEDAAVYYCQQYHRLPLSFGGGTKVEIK

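Designed CDR sequences, proposed from the first random library and measured here. Group labels follow the data file (Ctrl: baseline library sampled from a position-specific scoring matrix, with some repeated check sequences; Rand: our label for a block that the file lists under HC and that is probably the random mutants of the ten best first-round binders; En: ensemble of fine-tuned language models; GP: Gaussian process model; GPLM: also part of the Gaussian process libraries; HC: hill climbing; Gen: genetic algorithm; Gibbs: Gibbs sampling; a sequence that several methods proposed may carry one label only). In AlphaSeq, yeast of one mating type display the scFv and yeast of the other type display the target. Mating (16 h, 30 °C) was followed by selection of diploids and sequencing of their barcodes. Read counts were normalised to the haploid input and turned into Kd by a linear fit to BCL2-family pairs of known affinity, for each replicate. Each pool was mated in six replicate cultures.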

The parent's heavy chain CDRs are GFTLNSYGIS, VIYSDGRRTFYGDSVK, GRAAGTFDS; each variant's own CDRs replace them letter for letter. Numbers give log10(Kd / nM), so 0 is 1 nM and 3 is 1 µM. Smaller is tighter. A mean of the replicates is given; it leaves out those without a signal. A pair that was not seen in any replicate is written "nd"; this usually means weak binding, but a binder can also be missed. The authors' rule: three or more of the six replicates give a measured affinity, fewer mean a poor binder. Empty control strains, which show no peptide, gave a signal in 1% of pairings with all heavy chain designs; the median was 2.08 and 95% of these signals were weaker than 0.84. No background was subtracted. The range of this assay differs from that of the first round, and the authors advise against merging the two.

Result nd (0 of 6 replicates), variant GKGLDEYGIS / VIYADGVRKAYAQSVK / GQVGFFVRV [En_Gibbs].
Result 0.00 (6 of 6 replicates), variant GYSLNEYGIS / VIYSDGRRTFYGDSVK / GRTAGTFDS [GPLM_Gibbs].
Result 0.66 (6 of 6 replicates), variant GFTLNEYGIS / VIYSDGRRTFYGDSVK / GREAGTFDL [GPLM_Gen].
Result 0.13 (6 of 6 replicates), variant GFDLNEYGIS / VIYADGRRTFYADSVK / GQIAGTFIV [En_HC].
Result 0.47 (6 of 6 replicates), variant GFTLNDYGIS / VIYSDGRRTFYGDSVK / GRTAGTFDK [GPLM_Gen].
Result 0.38 (6 of 6 replicates), variant GFSLNSYGIS / VIYSDGKRTFYSDSVK / GKAAGTFDS [GP_Gen].
Result 3.04 (1 of 6 replicates), variant GFTLNDYGIS / VIYSDGRRTAYDDSVK / GRAAGTFDS [Ctrl].
Result -0.51 (6 of 6 replicates), variant GFDLDEYGIS / VIYADGMRTAYADKVK / GNVAGTFDL [En_Gen].
Result -0.42 (6 of 6 replicates), variant GFDLNEYGIS / VIYADGRRTFYADSVK / GEVAGTFVE [En_HC].
Result 1.37 (1 of 6 replicates), variant GFTLNSYGIS / VIYADGRRTFYGDSVK / GGAAGTFKS [GPLM_HC].
Result 1.04 (6 of 6 replicates), variant GFVLNEYGIS / VIYSDGRRTFYGDSVK / GQAAGTFDL [GPLM_Gen].
Result -0.28 (6 of 6 replicates), variant GFDLNEYGIS / VIYADGRRTAYSDSVK / GENAGTFDF [En_HC].
Result nd (0 of 6 replicates), variant EFDLNEYGIS / VIYADGHRSFYIDTVK / GQQAGIFNM [En_Gibbs].
Result -0.22 (6 of 6 replicates), variant GFNLDEYGIS / VIYADGRRTFYADSVK / GNSAGTFDS [En_HC].
Result 1.13 (6 of 6 replicates), variant GFNLEDYGIS / VIYADGKRQAYTENVK / CHSDGIMVV [En_Gibbs].
Result 1.50 (6 of 6 replicates), variant GFDLDEYGIS / VIYSDGRRTAYGDSVK / GGAAGSFNS [Ctrl].
Result -0.55 (6 of 6 replicates), variant GFDLDEYGIS / VIYADGKRTAYTDSVK / GNTAGTFDV [En_Gen].
Result 2.17 (6 of 6 replicates), variant GFDLNEYGIS / VIYADGRRTFYTDSVK / GGNAGTFDD [En_HC].
Result nd (0 of 6 replicates), variant GFTLNKYGIS / VIYSDGRRTFYGDSVK / GRAVGTFKS [Ctrl].
Result nd (0 of 6 replicates), variant GFNIDEYGVS / VIYADGRRQYYADKVK / GHNLVMALV [En_Gibbs].
Result 0.36 (6 of 6 replicates), variant GFDLNEYGIS / VIYADGMRTAYIDSVK / GEVAGTFDV [En_Gen].
Result 1.99 (3 of 6 replicates), variant GFTLNDYGIS / VIYSDGRRTQYIDSVK / GRAAGTFDA [GP_HC].
Result 0.98 (5 of 6 replicates), variant GFSLNEYGIS / VIYSDGRRTFYMDSVK / GKAAGTFDS [GP_Gen].
Result 1.81 (6 of 6 replicates), variant GFSLNSYGIS / VIYSDGRRTFYDDSVK / GWMAGTFDS [GP_Gibbs].
Result 1.42 (1 of 6 replicates), variant GFTLDSGGIS / VIYSDGRRTFYGDHVK / GRAAGTALS [Rand].
Result -0.48 (6 of 6 replicates), variant GFDLNEYGIS / VIYADGMRTFYADSVK / GNQAGTFDQ [En_HC].
Result -0.46 (6 of 6 replicates), variant GFDLDEYGIS / VIYADGMRTYYADSVK / GNQAGTFDV [En_Gen].
Result 0.13 (6 of 6 replicates), variant GFDLDEYGIS / VIYADGRRTFYADSVK / GEAAGTFTL [En_HC].
Result -0.16 (6 of 6 replicates), variant GFTLNEYGIS / VIYSDGRRTFYADDVK / GRTAGTFDS [GP_HC].
Result -1.94 (6 of 6 replicates), variant GFDLNEYGIS / VIYADGMRTAYADSVK / GNEAGTFDS [En_HC].
Result 0.97 (6 of 6 replicates), variant GFDLNSYGIS / VIYSDGRRTFYGDQVK / GRVAGTFDS [GP_Gen].
Result -0.37 (6 of 6 replicates), variant GFTLNDYGIS / VIYSDGRRTFYSDAVK / GRTAGTFDS [GP_HC].
Result nd (0 of 6 replicates), variant GFTLNSYGIS / VIYSDGRRTFYGDSVK / GPHTGTEDS [Ctrl].
Result -0.41 (6 of 6 replicates), variant GFDLNEYGIS / VIYADGRRTFYADSVK / GETGGTFDV [En_HC].
Result 0.36 (6 of 6 replicates), variant GFTLDSYGIS / VIYSDGRRTFYGDSVK / GREAGTFDT [GPLM_Gen].
Result -0.41 (6 of 6 replicates), variant GFDLNEYGIS / VIYADGKRTAYIDSVK / GNQAGTFDV [En_Gen].
Result nd (0 of 6 replicates), variant GFTLNSYGIS / VIYSDGRRTQYGDSVK / GRAAGTKDS [Ctrl].
Result -0.07 (6 of 6 replicates), variant GFDLNEYGIS / VIYADGVRTSYADSVK / GEVAGTFDT [En_Gen].
Result 2.34 (5 of 6 replicates), variant GFHLNSYGIS / VIYSDGRRTFYDDSVK / GKAAGTFDS [GPLM_Gen].
Result nd (0 of 6 replicates), variant GFCLNSYGIS / VIYSDGRRTFYGDNFK / GRAAGTFFS [Ctrl].
Result 1.52 (1 of 6 replicates), variant GFNLNSYGIS / VIYSDGRRTFYGDPVK / GRTAGTFDS [GP_Gen].
Result nd (0 of 6 replicates), variant GFSLNSYGIS / VIYSDGRRTFYGDSVK / GMKAGTFDD [GP_Gibbs].
Result nd (0 of 6 replicates), variant GFTLNDYGIS / VIYSDGRRTFYGDSVK / GRAAGTFTL [GP_HC].
Result 0.84 (6 of 6 replicates), variant GFDLNSYGIS / VIYSDGRRTFYADSVK / GQAAGTFDF [GP_Gibbs].
Result 1.29 (6 of 6 replicates), variant PFSLNSYGIS / VIYSDGRRTFYADSVK / GRTAGTFDS [GPLM_Gen].
Result -1.72 (2 of 6 replicates), variant KFDLNSYGIS / VIYSDGKRTFYGDSVK / GRNAGTFDS [GP_Gibbs].
Result 0.42 (6 of 6 replicates), variant GFDLNSYGIS / VIYSDGRRTFYIDSVK / GQAAGTFDT [GP_Gen].
Result 0.35 (5 of 6 replicates), variant KFGLNEYGIS / VIYSDGRRTFYGDSVK / GRCAGTFDS [GP_HC].

The opening 6 entries, copied out:

CDR-H1	CDR-H2	CDR-H3	group	mean log10 Kd (nM)	detected
GKGLDEYGIS	VIYADGVRKAYAQSVK	GQVGFFVRV	En_Gibbs	nd	0 of 6
GYSLNEYGIS	VIYSDGRRTFYGDSVK	GRTAGTFDS	GPLM_Gibbs	0.00	6 of 6
GFTLNEYGIS	VIYSDGRRTFYGDSVK	GREAGTFDL	GPLM_Gen	0.66	6 of 6
GFDLNEYGIS	VIYADGRRTFYADSVK	GQIAGTFIV	En_HC	0.13	6 of 6
GFTLNDYGIS	VIYSDGRRTFYGDSVK	GRTAGTFDK	GPLM_Gen	0.47	6 of 6
GFSLNSYGIS	VIYSDGKRTFYSDSVK	GKAAGTFDS	GP_Gen	0.38	6 of 6

Values reported by Li et al. 2023, doi:10.1038/s41467-023-39022-2 (FLAb copy).